Results on one compound are retold here after ChEMBL document CHEMBL1138233, “New iantherans from the marine sponge Ianthella quadrangulata: novel agonists of the P2Y(11) receptor” (J Med Chem, 2007).

Amino acid sequences for entries named in this document (tags omitted). A change or cut given only in a name is not applied to a line headed by its entry.
UniProt P47900: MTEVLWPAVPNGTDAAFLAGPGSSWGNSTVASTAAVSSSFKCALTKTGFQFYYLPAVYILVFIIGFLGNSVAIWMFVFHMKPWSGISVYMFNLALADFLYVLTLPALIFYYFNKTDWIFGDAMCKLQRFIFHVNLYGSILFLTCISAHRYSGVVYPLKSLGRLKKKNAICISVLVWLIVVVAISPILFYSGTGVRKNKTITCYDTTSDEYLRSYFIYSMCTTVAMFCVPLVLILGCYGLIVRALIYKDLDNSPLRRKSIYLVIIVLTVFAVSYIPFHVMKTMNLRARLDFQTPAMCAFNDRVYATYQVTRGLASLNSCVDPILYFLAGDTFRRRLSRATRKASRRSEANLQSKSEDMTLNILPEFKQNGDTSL

The test addresses P2Y purinoceptor 1 (Homo sapiens, UniProt P47900). The test can be described thus: Agonist activity at P2Y1 receptor expressed in 1321N1 cells assessed as cytosolic calcium level. It is filed as functional, cell-based.

pEC50: −log10 of the molar value.

Take `CSc1nc(N)c2ncn([C@@H]3O[C@H](COP(=O)(O)OP(=O)(O)O)[C@@H](O)[C@H]3O)c2n1`: the pEC50 was 7.91.

In general, pEC50 refers to the EC50 on a negative log10 scale, so that one unit is a factor of ten.
